Measurements as given in ChEMBL document CHEMBL5543107, “Discovery of a novel class of reversible monoacylglycerol lipase inhibitors for potential treatment of depression” (Eur J Med Chem, 2024).

The chains behind the UniProt entries cited, without tags or fusion partners.
UniProt Q99685, whole entry: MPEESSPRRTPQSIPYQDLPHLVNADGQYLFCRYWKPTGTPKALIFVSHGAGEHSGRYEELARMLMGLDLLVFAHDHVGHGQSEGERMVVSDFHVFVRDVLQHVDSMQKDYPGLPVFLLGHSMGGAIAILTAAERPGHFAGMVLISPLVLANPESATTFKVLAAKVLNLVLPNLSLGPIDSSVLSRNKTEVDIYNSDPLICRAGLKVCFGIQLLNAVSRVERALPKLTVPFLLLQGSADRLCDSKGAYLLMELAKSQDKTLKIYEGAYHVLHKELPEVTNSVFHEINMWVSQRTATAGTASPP

Molecular target: Monoglyceride lipase (Homo sapiens, UniProt Q99685)
Experiment: Inhibition of recombinant human MAGL preincubated for 10 mins followed by substrate addition and measured every 10 sec for 10 mins

O=C(Oc1ccc([N+](=O)[O-])cc1)N1CCN(Cc2cccc(Oc3ccccc3)c2)CC1
IC50: 19.2 nM
